The text below walks through data of PubChem BioAssay AID743398 (Broad Institute, 2014).

The structures appear in SMILES notation. This is a selection; strong and weak results do not stand in their true shares. Activity calls are given as the source filed them. Cut-off read from the data, not from the text of the source: active = activation above about 30% (passing the limit was not always enough); inconclusive = no clear call, values can overlap the other calls.

This assay in a line: Wnt/beta-catenin pathway activators, primary screen, cell-based, plate reader, single point (AID 743398).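 Note: 0% = neutral control wells and 100% = positive control wells.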 Conditions: Wnt/beta-catenin reporter cell assay, activator, at 9.35 µM, hits give high values.
As for `O=C(NCC1(N2CCCCC2)CCCCC1)c1cccc(C(F)(F)F)c1`, the activation was inactive: -0.267%.

In the case of `COc1cc(C(=O)NCC2(N3CCCCC3)CCCCC2)ccc1OC(F)F`, the activation was inactive: -1.92%.

With `O=C(NCC1(N2CCOCC2)CCCCC1)c1cc(=O)[nH]c2ccccc12`, the activation is inactive: -2.83%.

In the case of `CN1CCN(CCOC(=O)C(O)(c2ccccc2)c2ccccc2)CC1`, the activation is inactive: -0.877%.

On to `COc1ccc(NC2CCN(C(=O)OC(C)(C)C)CC2)cc1`, for which the activation was inactive: -1.09%.

For `CC(C)c1ccc(C(=O)NCC2(N3CCOCC3)CCCCC2)cc1`, the activation is inactive: 0%.

In the case of `CCCCn1nnnc1C(c1cccc2ccccc12)N1CCC(n2c(=O)[nH]c3ccccc32)CC1` (stereo not given), the activation is inactive: -1.59%.

In the case of `CC(C)(C)n1nnnc1C(c1ccccc1OC(F)(F)F)N1CCC(n2c(=O)[nH]c3ccccc32)CC1` (stereo not given), the activation was inactive: -2.8%.

On to `O=C(NCC1(N2CCCCC2)CCCCC1)c1ccc(OC(F)F)cc1`, for which the activation was inactive: 4.91%.

`CCN1CCC(Nc2ccc(Cl)cc2)CC1`: the activation is inactive: -0.374%.

Take `O=c1[nH]c2ccccc2n1C1CCN(C(c2ccccc2OC(F)(F)F)c2nnnn2C2CCCC2)CC1` (stereo not given): the activation was inactive: -2.64%.

With `O=C(NCC1(N2CCCCC2)CCCCC1)c1cccc([N+](=O)[O-])c1`, the activation was inactive: -0.364%.

`CSc1ccc(C(=O)NCC2(N3CCOCC3)CCCCC2)cc1`: the activation was inactive: 1.69%.

As for `CN1CCC(Nc2cccc(F)c2)CC1`, the activation was inactive: 0.528%.

Regarding `O=C(NCC1(N2CCCCC2)CCCCC1)c1cncc(Br)c1`, the activation is inactive: -1.06%.

`COc1ccc(C(c2nnnn2C2CCCC2)N2CCC(n3c(=O)[nH]c4ccccc43)CC2)cc1` (stereo not given): the activation is inactive: -1.14%.

As to `Cc1ccc(C(=O)NCC2(N(C)C)CCCCC2)o1`, the activation is inactive: -1.85%.

In the case of `CCCOc1ccc(C(=O)NCC2(N(C)C)CCCCC2)cc1OC`, the activation is inactive: 0.927%.

In the case of `CC(C)c1ccc(NC2CCN(C(=O)OC(C)(C)C)CC2)cc1`, the activation is inactive: 9.7%.

`COc1ccc(CN(CCCl)CCCl)cc1Cl`: the activation was inactive: -0.789%.

Consider `CN(C)c1cccc(C(=O)NCC2(N3CCCCC3)CCCCC2)c1`, for which the activation was inactive: 0.588%.

On to `COc1cc(OC)c(C(=O)NCC2(N(C)C)CCCCC2)cc1OC`, for which the activation was inactive: -0.453%.

For `CCC(c1nnnn1C(C)(C)C)N1CCC(n2c(=O)[nH]c3ccccc32)CC1` (stereo not given), the activation is inactive: -1.47%.

On to `O=C(NCC1(N2CCOCC2)CCCCC1)c1cc(F)c(F)cc1Cl`, for which the activation was inactive: -4.02%.

For `CCCCn1nnnc1C(c1ccnc2ccccc12)N1CCC(n2c(=O)[nH]c3ccccc32)CC1` (stereo not given), the activation was inactive: -1.83%.

For `O=C(NCC1(N2CCCCC2)CCCCC1)c1ccc(Cl)nc1`, the activation was inactive: -1.2%.

Consider `O=c1[nH]c2ccccc2n1C1CCN(C(c2ccccc2OC(F)(F)F)c2nnnn2C2CCCCC2)CC1` (stereo not given), for which the activation is inactive: -4.54%.

In the case of `Cc1cc(C)cc(N(C(=O)c2ccccc2)C2CCN(C(=O)OC(C)(C)C)CC2)c1`, the activation was inactive: -1.83%.

Turning to `O=C(NCC1(N2CCCCC2)CCCCC1)c1ccc(Cl)s1`, the activation is inactive: -1.76%.

Take `N#CC1(Nc2ccccc2)CCN(Cc2ccccc2)CC1`: the activation is inactive: 18.4%.

Regarding `O=C(OC1CN2CCC1CC2)C1c2ccccc2Oc2ccccc21` (stereo not given), the activation was inactive: 1.36%.

Regarding `O=c1[nH]c2ccccc2n1C1CCN(C(c2cc3ccccc3o2)c2nnnn2C2CCCCC2)CC1` (stereo not given), the activation was inactive: -3.62%.

As to `COc1ccc(Cl)cc1C(=O)NCC1(N2CCOCC2)CCCCC1`, the activation is inactive: -1.09%.

Turning to `CCOC(=O)N1CCC(Nc2ccc(OC)cc2)CC1`, the activation was inactive: -9.5%.

On to `CCCCn1nnnc1C(c1ccc(OC)cc1)N1CCC(n2c(=O)[nH]c3ccccc32)CC1` (stereo not given), for which the activation was inactive: 0.762%.

As for `COc1ccc(C(=O)NCC2(N3CCCCC3)CCCCC2)cc1`, the activation was inactive: -0.752%.

`COc1ccc(C(=O)NCC2(N3CCCCC3)CCCCC2)c(OC)c1OC`: the activation was inactive: -0.339%.

Take `CC(C)(C)OC(=O)N1CCC(N(C(=O)c2ccccc2)c2ccc(F)cc2)CC1`: the activation was inactive: -0.57%.

As for `CCC(c1nnnn1C1CCCC1)N1CCC(n2c(=O)[nH]c3ccccc32)CC1` (stereo not given), the activation was inactive: -0.278%.

In the case of `O=C(NCC1(N2CCCCC2)CCCCC1)c1ccc(=O)[nH]c1`, the activation is inactive: -0.966%.

Consider `CCCCn1nnnc1C(CC)N1CCC(n2c(=O)[nH]c3ccccc32)CC1` (stereo not given), for which the activation was inactive: -4.2%.

Take `O=C(NCC1(N2CCCCC2)CCCCC1)c1cccs1`: the activation was inactive: -1.27%.

As to `CCCCn1nnnc1C(c1cccs1)N1CCC(n2c(=O)[nH]c3ccccc32)CC1` (stereo not given), the activation is inactive: -1.3%.

For `CSc1ccccc1C(=O)NCC1(N2CCCCC2)CCCCC1`, the activation was inactive: -2.31%.

In the case of `Cc1cccc(NC2(C#N)CCN(Cc3ccccc3)CC2)c1`, the activation was inactive: -1.24%.

Turning to `O=c1[nH]c2ccccc2n1C1CCN(C(c2ccccc2)c2nnnn2C2CCCCC2)CC1` (stereo not given), the activation was inactive: -2.77%.

As for `CCOC(=O)N1CCC(Nc2cccc(C)c2)CC1`, the activation is inactive: -0.123%.

Turning to `COc1cc(C(=O)NCC2(N(C)C)CCCCC2)ccc1OC(F)F`, the activation was inactive: -2.49%.

For the compound `O=c1[nH]c2ccccc2n1C1CCN(C(c2cccc3ccccc23)c2nnnn2C2CCCC2)CC1` (stereo not given), the activation is inactive: -1.8%.

Turning to `CC(C)(C)n1nnnc1C(c1ccccc1)N1CCC(n2c(=O)[nH]c3ccccc32)CC1` (stereo not given), the activation is inactive: -1.59%.

For the compound `O=C1CCN(Cc2ccccc2)CC1`, the activation was inactive: -0.623%.

As to `CCOc1ccc(C)cc1CN(CCCl)CCCl`, the activation was inactive: -3.69%.

Consider `CCCCn1nnnc1C(c1cc2ccccc2o1)N1CCC(n2c(=O)[nH]c3ccccc32)CC1` (stereo not given), for which the activation was inactive: -3.88%.

Consider `O=P1(N(CCCl)CCCl)SCCCS1`, for which the activation was inactive: -1.16%.

For the compound `CCCCOc1ccc(C(=O)NCC2(N3CCOCC3)CCCCC2)cc1`, the activation was inactive: 0.62%.

Consider `O=C(NCC1(N2CCCCC2)CCCCC1)c1ccc(F)cc1`, for which the activation is inactive: -2.39%.

As to `CCOC(=O)N1CCC(Nc2ccc(F)cc2)CC1`, the activation was inactive: -1.16%.

Turning to `Cc1ccccc1NC1(C#N)CCN(Cc2ccccc2)CC1`, the activation is inactive: -3.22%.

For the compound `COc1ccc(C(c2nnnn2C2CCCCC2)N2CCC(n3c(=O)[nH]c4ccccc43)CC2)cc1` (stereo not given), the activation was inactive: 2.27%.

As for `CCN1CCC(Nc2cccc(F)c2)CC1`, the activation is inactive: -0.798%.
